IC50 data for 3 compounds are collected here from ChEMBL document CHEMBL1145633, “Inhibitors of the tyrosine kinase EphB4. Part 1: Structure-based design and optimization of a series of 2,4-bis-anilinopyrimidines” (Bioorg Med Chem Lett, 2008).

This assay addresses T1, Ephrin type-B receptor 4 (Homo sapiens, UniProt P54760).
T1 sequence (P54760 whole entry): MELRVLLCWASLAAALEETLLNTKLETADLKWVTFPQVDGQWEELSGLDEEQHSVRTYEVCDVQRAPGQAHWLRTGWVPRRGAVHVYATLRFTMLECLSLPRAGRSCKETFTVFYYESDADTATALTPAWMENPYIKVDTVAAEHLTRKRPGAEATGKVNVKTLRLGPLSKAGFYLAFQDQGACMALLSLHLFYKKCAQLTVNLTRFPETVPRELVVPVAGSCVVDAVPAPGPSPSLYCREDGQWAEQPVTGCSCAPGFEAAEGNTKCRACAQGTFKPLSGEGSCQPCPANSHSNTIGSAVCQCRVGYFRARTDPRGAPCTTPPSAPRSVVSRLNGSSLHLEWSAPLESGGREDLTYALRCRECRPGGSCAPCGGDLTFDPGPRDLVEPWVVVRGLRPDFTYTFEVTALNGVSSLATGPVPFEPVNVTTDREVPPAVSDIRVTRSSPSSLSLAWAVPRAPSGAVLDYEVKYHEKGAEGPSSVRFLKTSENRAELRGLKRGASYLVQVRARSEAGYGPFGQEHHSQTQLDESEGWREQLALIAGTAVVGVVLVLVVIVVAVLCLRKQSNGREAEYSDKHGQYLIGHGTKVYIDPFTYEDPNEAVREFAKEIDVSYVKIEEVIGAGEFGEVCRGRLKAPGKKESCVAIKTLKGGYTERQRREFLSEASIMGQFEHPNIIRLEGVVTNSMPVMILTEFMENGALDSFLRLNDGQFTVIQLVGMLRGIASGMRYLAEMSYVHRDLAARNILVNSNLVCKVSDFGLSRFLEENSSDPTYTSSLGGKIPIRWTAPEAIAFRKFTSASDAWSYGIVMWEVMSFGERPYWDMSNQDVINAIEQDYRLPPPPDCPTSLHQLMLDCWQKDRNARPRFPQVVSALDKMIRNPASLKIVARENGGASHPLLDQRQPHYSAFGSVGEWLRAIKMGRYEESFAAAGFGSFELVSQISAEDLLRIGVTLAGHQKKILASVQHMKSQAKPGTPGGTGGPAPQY
Description: Inhibition of EphB4.

By IC50 is commonly meant the concentration that inhibits the measured activity by half. In the case of `COc1cc(Nc2nccc(Nc3c(Cl)ccc4c3OCO4)n2)cc(OC)c1OC`, half-maximal inhibition (IC50) required 240 nM.
The same measure for `Clc1ccc2c(c1Nc1ccnc(Nc3cccc(N4CCOCC4)c3)n1)OCO2`: 580 nM.
`NS(=O)(=O)c1cccc(Nc2nccc(Nc3c(Cl)ccc4c3OCO4)n2)c1` showed a concentration for half-maximal inhibition (IC50) of 40 nM.
